Experimental data published in US20230265247A1, “PROCESS FOR PREPARING POLYIMIDES” (Technische Universität Wien, priority 2020, published 2023).

Conditions: salts of tetrahydrofuran-2,3,4,5-tetracarboxylic acid; 1 ml distilled water with around 20 to 40% by weight of salt, stirred 15 minutes; no = no clear solution

Row | Substance | Salt is water-soluble
1 | Norbornane bis(methylammonium)-dihydrogen-tetrahydrofuran-2,3,4,5-tetracarboxylate [Example B15] | yes
2 | Tricyclo[5.2.1.0^2,6]decane-3(4),8(9)-bis(methanammonium)-dihydrogen-tetrahydrofuran-2,3,4,5-tetracarboxylate [Example B17] | yes
